# Yeast mating assay 1: variants of the scFv Ab-14

Binding partner: SARS-CoV-2 spike HR2 peptide, sequence PDVDLGDISGINAS.

Each scFv is VH, a (GGGGS)3 linker, VL, as in the parent Ab-14, and differs from it in the CDRs of the heavy chain only.
VH: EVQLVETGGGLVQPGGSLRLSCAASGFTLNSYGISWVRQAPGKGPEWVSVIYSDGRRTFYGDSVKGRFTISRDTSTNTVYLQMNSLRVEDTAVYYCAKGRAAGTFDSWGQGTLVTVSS
VL: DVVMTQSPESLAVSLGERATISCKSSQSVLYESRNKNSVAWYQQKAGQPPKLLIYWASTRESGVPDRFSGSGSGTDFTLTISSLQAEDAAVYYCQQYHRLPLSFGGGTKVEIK

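Library AAYL49 holds single substitutions and randomly drawn double and triple substitutions in the CDRs. AlphaSeq pools MATa yeast showing the antibodies with MATalpha yeast showing the peptide. Mating (16 h, 30 °C) was followed by selection of diploids and sequencing of their barcodes. Each replicate has its own calibration line, from reference interactions of the BCL2 family. Each pool was mated in three replicate cultures.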

Variants are written as CDR1, CDR2 and CDR3 of the heavy chain (limits as in the source). Parent: GFTLNSYGIS, VIYSDGRRTFYGDSVK, GRAAGTFDS. The read-out is the apparent dissociation constant on a log10 scale (nM): the lower, the stronger. Replicates are averaged; those with no signal do not enter the mean. A pair that was not seen in that replicate is written "nd"; this usually means weak binding, but a binder can also be missed.

CDR-H1,CDR-H2,CDR-H3,log10 Kd (nM) by replicate,"mean, log10 nM",control signals
GFTLWSYGIC,VIYSDGRRTFYGDSVK,GRAAGTFDS,nd / nd / nd,nd,0 of 9
GFTLNSYGIS,VIYSDGRRTFYGDSVK,GRLAGTQDY,1.51 / 1.44 / 1.63,1.53,2 of 9 (4.92)
GFTLNSYGIS,VLYSDGRRTFYGDSVK,GRAAQTFDS,nd / nd / nd,nd,1 of 9 (3.34)
GFTLNSYGIE,VIYSDGRRTFYGDGVK,GPAAGTFDS,nd / nd / nd,nd,0 of 9
NFTLNSWGIS,VIYSDGRRTFYGDSTK,GRAAGTFDS,nd / 4.16 / nd,4.16,1 of 9 (4.22)
HFTLNSYHIS,VIYSDGRRTFYGDSVK,GRAAGTFRS,nd / nd / nd,nd,0 of 9
GATLNSYGIS,VIYIWGRRTFYGDSVK,GRAAGTFDS,nd / nd / nd,nd,1 of 9 (3.59)
GFTLNSYGIS,VIYSDKRYTFYGDSVK,GRAAGTFDS,nd / nd / nd,nd,0 of 9
GFCKNIYGIS,VIYSDGRRTFYGDSVK,GRAAGTFDS,nd / nd / nd,nd,2 of 9 (4.11)
GFTLMRYGIS,VAYSDGRRTFYGDSVK,GRAAGTFDS,2.39 / 3.08 / 3.44,2.97,2 of 9 (3.37)
GFTLNSYGIS,VIYSDGRRTLYGWSVK,GRAQGTFDS,nd / nd / nd,nd,0 of 9
GFTLNSYGIS,VIYSDGRDTFYFDSVK,GRCAGTFDS,nd / nd / nd,nd,0 of 9
GFTLNSYGIS,VIYSDERDTFYSDSVK,GRAAGTFDS,nd / nd / nd,nd,0 of 9
GFYLNSYGIS,VIYSDGRRTFYGDSVK,GDAAGTFDS,0.63 / 0.73 / 0.65,0.67,4 of 9 (5.11)
GQTLNSYGIS,VINSDGRRTFYGDSVK,GRVAGTFDS,nd / nd / 3.94,3.94,4 of 9 (3.66)
GFTLNSYRIS,VIYSDGRHTFYGDSVK,GRAAGTFDS,nd / 4.16 / nd,4.16,0 of 9
GFTLNSYGPS,VIYSDGRGTFYGDSVK,GRAAGFFDS,nd / nd / nd,nd,0 of 9
GFTPNHYGIS,VIYSDGRRTFYGDSVK,GRAAGVFDS,nd / nd / nd,nd,0 of 9
GITLNSYGIS,VIYSPGRRTFLGDSVK,GRAAGTFDS,3.46 / 3.98 / 3.88,3.78,4 of 9 (4.50)
GFTLNSYGIS,VCYSDGRRTFYGDSVG,GRFAGTFDS,nd / 4.26 / 6.15,5.21,5 of 9 (4.28)
GFTSNSYGIS,VIYSNGRRTFYGDSVK,GRAYGTFDS,nd / nd / 4.91,4.91,3 of 9 (3.80)
GATLNSYGIS,VIYSDGRRTFYLDSVK,GRAAGTFDS,1.00 / 1.20 / 1.30,1.17,2 of 9 (4.03)
GFTTNSYLIS,VIYSDGRRTFYGDVVK,GRAAGTFDS,nd / nd / nd,nd,0 of 9
GFELNSYGIS,VIYSDGRRTFYGDSVK,GRAAGGKDS,nd / nd / nd,nd,0 of 9
GFTLNSYGIS,VIYSDGRRTMYGDSVK,GRAAGTFAS,3.96 / nd / nd,3.96,1 of 9 (3.14)
GFTLNSYWIS,VIGSDGRRTFYGDSDK,GRAAGTFDS,nd / nd / nd,nd,0 of 9
GFTLNSYGIS,VIYSDGRRTFQMDSVK,LRAAGTFDS,nd / nd / nd,nd,0 of 9
SFTLNSYGYS,VIYSDGRRTFYGDSVK,GRAAGTKDS,2.85 / nd / nd,2.85,2 of 9 (3.71)
GFTLNSYAIS,VIYRDGRRTFYGDSVK,GRCAGTFDS,nd / nd / nd,nd,0 of 9
GFTLNSYGIS,VIYSDGRRTFYGRDVK,GRAAKTFDS,nd / 3.50 / nd,3.50,0 of 9
GYTLNSYVIS,VIYSGGRRTFYGDSVK,GRAAGTFDS,5.86 / 5.44 / 4.74,5.35,3 of 9 (4.30)
GFTLNSYRIS,VIYSDGRRTFYGDSNK,GRAAGTFNS,nd / nd / nd,nd,0 of 9
GFTLNSYGIS,RIYSDGRRTFYGDSVK,GTAQGTFDS,nd / 3.21 / nd,3.21,3 of 9 (4.16)
GFTLNSYGIM,VIYSDGRRTFYGDSVK,GRAAGYFDS,nd / nd / nd,nd,0 of 9
GFTLNSQGIS,VIYSDGRRTFYGDSVC,GRHAGTFDS,3.36 / 2.05 / 1.83,2.41,2 of 9 (3.88)
GFTLNSDGIS,VIYSSGRRTFKGDSVK,GRAAGTFDS,nd / nd / nd,nd,0 of 9
GFTLGSYGII,VIYSDGRRTFYGDSVK,GRAAGTFDV,nd / 4.16 / nd,4.16,0 of 9
GFTLNSYFIS,VYYSDGRRTFGGDSVK,GRAAGTFDS,3.32 / nd / nd,3.32,0 of 9
GGTLNSHGIS,VIYSDGRRTFYGDSLK,GRAAGTFDS,nd / nd / nd,nd,0 of 9
GFTLNSYGIS,VIYSDGRRTFYGRSVF,GRAAYTFDS,5.08 / nd / nd,5.08,2 of 9 (4.89)
GFTLNSYGIS,EIYSDKRRTFYGDSVR,GRAAGTFDS,nd / nd / 3.59,3.59,0 of 9
GFTGNSCGIS,KIYSDGRRTFYGDSVK,GRAAGTFDS,nd / nd / nd,nd,0 of 9
GFYLNSYGIS,VIYSDGRRTFYGDSVK,RRAKGTFDS,2.78 / nd / 4.42,3.60,2 of 9 (4.24)
GFTLNSNGIS,VIYSDGRRTFYGDSVK,VRDAGTFDS,nd / nd / nd,nd,0 of 9
GFLLNSYGIS,VLYSDGRRTFYGDSVK,GRACGTFDS,4.78 / nd / 4.73,4.75,2 of 9 (4.48)
GFTLNSYMIS,VIYSDGRRTFYADSVK,GRAYGTFDS,nd / nd / nd,nd,0 of 9
GFWLNSYGIS,VIYSDGTRTFYGDSVK,GRAAGTFDS,nd / nd / 3.10,3.10,0 of 9

The 6 strongest on average among those seen in every replicate, once more:

CDR-H1,CDR-H2,CDR-H3,log10 Kd (nM) by replicate,"mean, log10 nM",control signals
GFYLNSYGIS,VIYSDGRRTFYGDSVK,GDAAGTFDS,0.63 / 0.73 / 0.65,0.67,4 of 9 (5.11)
GATLNSYGIS,VIYSDGRRTFYLDSVK,GRAAGTFDS,1.00 / 1.20 / 1.30,1.17,2 of 9 (4.03)
GFTLNSYGIS,VIYSDGRRTFYGDSVK,GRLAGTQDY,1.51 / 1.44 / 1.63,1.53,2 of 9 (4.92)
GFTLNSQGIS,VIYSDGRRTFYGDSVC,GRHAGTFDS,3.36 / 2.05 / 1.83,2.41,2 of 9 (3.88)
GFTLMRYGIS,VAYSDGRRTFYGDSVK,GRAAGTFDS,2.39 / 3.08 / 3.44,2.97,2 of 9 (3.37)
GITLNSYGIS,VIYSPGRRTFLGDSVK,GRAAGTFDS,3.46 / 3.98 / 3.88,3.78,4 of 9 (4.50)

Parent in this assay: reference entry 0.65, copy in this library 4.11 (one replicate of three). Background: pairings of library AAYL49 with three empty control strains gave a value in 15% of cases (median 4.06, 5th percentile 2.83). Values in that range, when seen in few replicates, are hard to tell from nonspecific mating. For each scFv, signals with the empty controls are counted beside the result, with their mean in brackets.

Reference: Engelhart et al. 2022, doi:10.1038/s41597-022-01779-4. File: FLAb, binding data.